The values below come from US20240325396A1, “METHODS FOR TREATING CANCER” (Allarity Therapeutics, Inc., priority 2023, published 2024).

Like-named read-outs stand apart in the source and are kept apart here.

For the experiment, the system named is murine lymphocytic leukemia parent cell line P388/S. Put plainly: Proliferation of P388/S parent line with or without verapamil. Particulars: Mus musculus.

On to `O=c1[nH]nc2c3c(cccc13)N=C(CN1Cc3ccccc3C1)N2` [stenoparib, 8-(isoindolin-2-ylmethyl)-2,9-dihydro-3H-pyridazino [3,4,5-de] quinazolin-3-one], for which the IC50 came out at 2340 nM (read-out: IC50, inhibition of proliferation, P388/S, with P-gp antagonist verapamil) and 2140 nM (read-out: IC50, inhibition of proliferation, P388/S, without verapamil).
